## Yeast mating assay 1: variants of the scFv Ab-14

Data: MIT Lincoln Laboratory AlphaSeq set, Engelhart et al. 2022, doi:10.1038/s41597-022-01779-4, as distributed in FLAb.

Binding partner: SARS-CoV-2 spike HR2 peptide, sequence PDVDLGDISGINAS.

Parent: Ab-14, a human scFv built as VH, a 15-residue (Gly4Ser)3 linker, VL. Only the CDRs of the heavy chain vary.
VH: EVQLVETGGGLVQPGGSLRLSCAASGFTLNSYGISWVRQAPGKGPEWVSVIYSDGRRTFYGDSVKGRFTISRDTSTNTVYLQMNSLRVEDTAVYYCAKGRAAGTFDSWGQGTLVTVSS
VL: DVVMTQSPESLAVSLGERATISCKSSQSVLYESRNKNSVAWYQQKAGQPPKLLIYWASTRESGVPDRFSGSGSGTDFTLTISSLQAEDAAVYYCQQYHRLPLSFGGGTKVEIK

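Library AAYL49 holds single substitutions and randomly drawn double and triple substitutions in the CDRs. Affinity was read by AlphaSeq, a pooled yeast mating assay with surface-displayed partners. Binding brings cells together so that they mate, and sequencing counts the barcode pairs among the diploids. Read counts were normalised to the haploid input and turned into Kd by a linear fit to BCL2-family pairs of known affinity, for each replicate. The assay was run in three technical replicates.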

Changes read parent residue, position, new residue, counted from the first residue of the VH shown. This list gathers variants with a substitution at N30 (VH, numbered from residue 1). The Kd shown is the geometric mean over detected replicates; a lower Kd is a better binder. "nd" means that the variant was in the library but no mating with the target was seen in any replicate; the authors take this as a sign of poor binding, and no number exists. For reference, the parent read 4.4 nM as the reference entry and 13 µM (one replicate of three) as a member of this library. Background: pairings of library AAYL49 with three empty control strains gave a value in 15% of cases (median 11 µM, 5th percentile 680 nM). Values in that range, when seen in few replicates, are hard to tell from nonspecific mating.

Variant N30H F59H Y60W gave nd (0 of 3 replicates).
Variant N30I S31P G55S gave nd (0 of 3 replicates).
Variant N30G G61N A102M gave 650 nM (1 of 3 replicates).
Variant N30V S53K V64L gave nd (0 of 3 replicates).
Variant N30A D106S gave 18 nM (3 of 3 replicates).
Variant N30V I34G gave 20 µM (2 of 3 replicates).
Variant N30E R56Y gave 11 nM (3 of 3 replicates).
Variant N30M V50L T58P gave 4.1 µM (1 of 3 replicates).
Variant N30H Y32P G103H gave nd (0 of 3 replicates).
Variant N30L D62N K65Q gave 140 nM (2 of 3 replicates).
Variant N30M S35C Y52L gave nd (0 of 3 replicates).
Variant N30I R56I R57K gave nd (0 of 3 replicates).
Variant N30C F59V T104W gave 1.7 µM (1 of 3 replicates).
Variant N30K I51Y D106M gave nd (0 of 3 replicates).
Variant N30Y D54I K65Y gave nd (0 of 3 replicates).
Variant N30D I51T G99Q gave nd (0 of 3 replicates).
Variant N30S S31M G99P gave 400 µM (1 of 3 replicates).
Variant N30Y R57V T58W gave 1.5 µM (1 of 3 replicates).
Variant N30R V50R V64M gave 53 µM (2 of 3 replicates).
Variant N30L Y52H T58F gave nd (0 of 3 replicates).
Variant L29S N30Q I51K gave nd (0 of 3 replicates).
Variant N30T G33I G103M gave 350 µM (2 of 3 replicates).
Variant N30P S31Y Y52Q gave 95 µM (3 of 3 replicates).
Variant N30W I51W F59S gave nd (0 of 3 replicates).
Variant N30F G99T T104I gave 21 µM (1 of 3 replicates).
Variant N30C G103M S107R gave nd (0 of 3 replicates).
Variant N30M R56K S63L gave 78 nM (3 of 3 replicates).
Variant L29K N30R T58Y gave nd (0 of 3 replicates).
Variant N30E D106P gave 3.2 nM (3 of 3 replicates).
Variant N30T K65A F105K gave nd (0 of 3 replicates).
Variant N30D I51M G61I gave 3.0 nM (3 of 3 replicates).
Variant N30L D54P D106T gave nd (0 of 3 replicates).
Variant N30C Y60C D106M gave 11 µM (2 of 3 replicates).
Variant N30R Y32W S35N gave nd (0 of 3 replicates).
Variant N30G V64M gave 720 nM (2 of 3 replicates).
Variant F27E N30L D54Y gave nd (0 of 3 replicates).
Variant N30Q S35Y S63N gave nd (0 of 3 replicates).
Variant N30H F59K gave 200 µM (1 of 3 replicates).
Variant L29K N30P gave nd (0 of 3 replicates).
Variant N30R T58P gave 14 µM (1 of 3 replicates).
Variant N30A G55I G61F gave nd (0 of 3 replicates).
Variant N30Y S53H gave 160 nM (3 of 3 replicates).
Variant N30I Y32W gave nd (0 of 3 replicates).
Variant N30S S35P F59L gave nd (0 of 3 replicates).
Variant N30W S63A F105T gave nd (0 of 3 replicates).
Variant N30T V50S R57C gave 210 nM (3 of 3 replicates).
Variant F27E N30M Y32C gave 50 µM (1 of 3 replicates).
Variant N30Y I51P gave nd (0 of 3 replicates).

Top 4 of the variants detected in all replicates, tightest first:

| changes | apparent Kd | detected |
|---|---|---|
| N30D I51M G61I | 3.0 nM | 3/3 |
| N30E D106P | 3.2 nM | 3/3 |
| N30E R56Y | 11 nM | 3/3 |
| N30A D106S | 18 nM | 3/3 |